1 compound from BindingDB's records for doi:10.1021/jm0201924 (Senju Pharmaceutical, 2003) can be followed below.

Sequences of proteins named here, by UniProt entry; tags and fusion partners are left off.
UniProt P05177, whole entry: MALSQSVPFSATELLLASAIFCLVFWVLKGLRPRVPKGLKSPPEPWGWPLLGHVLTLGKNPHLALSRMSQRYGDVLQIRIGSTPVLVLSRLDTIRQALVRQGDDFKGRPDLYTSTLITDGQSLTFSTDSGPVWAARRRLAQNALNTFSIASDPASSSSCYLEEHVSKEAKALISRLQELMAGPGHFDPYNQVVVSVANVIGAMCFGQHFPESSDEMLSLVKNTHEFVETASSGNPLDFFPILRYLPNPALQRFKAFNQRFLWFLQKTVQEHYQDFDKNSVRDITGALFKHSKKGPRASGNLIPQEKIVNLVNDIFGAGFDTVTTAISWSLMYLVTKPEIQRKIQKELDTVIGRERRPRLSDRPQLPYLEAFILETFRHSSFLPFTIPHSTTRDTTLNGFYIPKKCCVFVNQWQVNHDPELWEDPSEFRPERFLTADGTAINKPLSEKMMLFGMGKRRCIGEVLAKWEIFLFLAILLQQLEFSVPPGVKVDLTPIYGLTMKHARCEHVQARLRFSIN

For orientation: IC50 means the concentration needed to halve the response being measured. A higher IC50 goes with weaker potency.

Each structure is given as a SMILES string.

The data set addresses Cytochrome P450 1A2 (Homo sapiens, UniProt P05177). Nature of the data set: Inhibition of Cytochrome P450 1A2.

For `CC(C)C[C@H](C=O)NC(=O)[C@@H](NS(=O)(=O)c1ccc(F)cc1)C(C)C` [2-(4-Fluoro-benzenesulfonylamino)-N-(1-formyl-3-methyl-butyl)-3-methyl-butyramide], the IC50 is more than 1000 µM.
